{"source": "patent US9133260B2", "about": "(priority 2005, dated 2015)", "origin": "cited, not measured here", "conditions": "subcutaneous, conscious rats, rat weight ~200 g; cited from earlier work"}
{"smiles": "CC[C@H](C)[C@H](NC(=O)[C@@H]1CCCN1C(=O)CNC(=O)[C@H](Cc1ccccc1)NC(=O)[C@H](CC(N)=O)NC(=O)[C@H](CC(N)=O)NC(=O)[C@H](CO)NC(=O)[C@H](CO)NC(=O)[C@H](Cc1c[nH]cn1)NC(=O)[C@@H](NC(=O)[C@H](CC(C)C)NC(=O)[C@H](Cc1ccccc1)NC(=O)[C@H](CC(N)=O)NC(=O)[C@H](C)NC(=O)[C@H](CC(C)C)NC(=O)[C@H](CCCNC(=N)N)NC(=O)[C@H](CCC(N)=O)NC(=O)[C@@H](NC(=O)[C@H](C)NC(=O)[C@@H]1CSSC[C@H](NC(=O)[C@@H](N)CCCCN)C(=O)N[C@@H](CC(N)=O)C(=O)N[C@@H]([C@@H](C)O)C(=O)N[C@@H](C)C(=O)N[C@@H]([C@@H](C)O)C(=O)N1)[C@@H](C)O)C(C)C)C(=O)N[C@@H](CC(C)C)C(=O)N1CCC[C@H]1C(=O)N1CCC[C@H]1C(=O)N[C@H](C(=O)N[C@@H](CC(N)=O)C(=O)N[C@H](C(=O)NCC(=O)N[C@@H](CO)C(=O)N[C@@H](CC(N)=O)C(=O)N[C@H](C(=O)N[C@@H](Cc1ccc(O)cc1)C(N)=O)[C@@H](C)O)C(C)C)[C@@H](C)O", "note": "[Pramlintide, ^25,28,29Pro-h-amylin]", "values": [{"measurement": "EC(50) inhibition of gastric emptying", "value": 0.07, "unit": "µg"}]}
